From patent US4450173A, “Compounds and method for treatment or prophylaxis of cardiac disorders” (American Hospital Supply Corporation, priority 1982, dated 1984)
Counter-ions that a name gives are not always drawn.

Protein sequences, listed by entry. Tags and fused reporters are not part of them.
UniProt Q8K4Z4, whole entry: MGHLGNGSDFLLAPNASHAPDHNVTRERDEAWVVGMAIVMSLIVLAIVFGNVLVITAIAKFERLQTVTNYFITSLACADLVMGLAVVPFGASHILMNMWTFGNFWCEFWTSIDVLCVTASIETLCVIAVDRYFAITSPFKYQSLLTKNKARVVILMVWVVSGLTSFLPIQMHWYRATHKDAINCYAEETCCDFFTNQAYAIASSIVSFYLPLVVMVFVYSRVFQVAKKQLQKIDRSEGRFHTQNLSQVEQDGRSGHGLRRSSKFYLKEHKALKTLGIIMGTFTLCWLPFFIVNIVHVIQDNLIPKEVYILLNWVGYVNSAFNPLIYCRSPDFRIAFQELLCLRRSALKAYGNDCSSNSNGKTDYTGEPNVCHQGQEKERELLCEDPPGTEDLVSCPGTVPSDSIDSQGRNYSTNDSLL

Target: guinea pig tracheal strips (Cavia porcellus, UniProt Q8K4Z4)
Assay type: cell-based
Settings: carbachol tension, isoproterenol, 60 minute incubation, pA2 = -log KB
Experimental: Each tissue was suspended between a fixed glass rod and a Statham® Universal Transducer connected to a Beckman® recorder. Atria were allowed to beat spontaneously under a loading tension of approximately 0.5 gm. Intrinsic depressant for stimulant activity was determined for each compound by progressively increasing concentrations in the tissue baths at 60-minute intervals. Tissues were not washed between increments. […] Changes in rate in response to isoproterenol were measured in the absence and presence of test compounds. Spiral strips of guinea pig trachea were suspended under 5 gm resting tension and incubated with phentolamine, tropolone and cocaine. Active tension was generated by addition of carbachol (3.0×10^-7 M) and decreases in tension in response to isoproterenol were quantitated. Cumulative concentration-response curves were produced with isoproterenol both before and after 60 minute incubation of test compounds with atria and trachea. The blocking potency of test compounds was estimated by computing pA2 values (-log KB) by the method of Furchgott, The Pharmacological Differentiation of Adrenergic Receptors, Ann. […] A ratio greater than one indicates cardioselectivity.

Structure (SMILES) | pA2 Trachea
CCOC(=O)CCNCC(O)COc1ccc(OC)cc1 (centres unmarked) [XXV] | 4.9
CCOC(=O)CNCC(O)COc1cccc2ccccc12 (centres unmarked) [Example II, Ethyl N-[[2-Hydroxy-3-(1-naphthoxy]propyl]glycinate Oxalate Hemihydrate] | 6.2
